Data published in patent US10220090B2, “BCMA Antigen binding proteins” (Amgen Inc., priority 2012, dated 2019).

Assays:
[1] = biological target: T1, BCMA on H929, RPMI 8226, OPM2, MM1S, U266, MM1R, RAMOS and EW36 cells (Homo sapiens, UniProt Q02223, N81S); experiment: FACS binding of Dy649-conjugated antibody to myeloma and B-cell lines
T1 construct: endogenous in cells; host or cells: H929, RPMI 8226, OPM2, MM1S, U266, MM1R, RAMOS, EW36
T1 sequence (Q02223 1-184 N81S): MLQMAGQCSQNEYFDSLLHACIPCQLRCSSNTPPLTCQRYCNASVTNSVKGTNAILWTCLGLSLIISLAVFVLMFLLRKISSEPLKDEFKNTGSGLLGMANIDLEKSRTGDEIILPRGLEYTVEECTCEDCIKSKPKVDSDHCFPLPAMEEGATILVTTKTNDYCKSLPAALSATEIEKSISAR
Description: Approximately 10 to 40×10^6 of cells were resuspended in a staining solution (2% goat serum, 1% rabbit serum, 0.02% azide in PBS) and aliquoted into round-bottom, 96-well plate (Corning Incorp., Acton, Mass.) as per the experiment design. The cells were incubated at 4 degrees celsius for 30 minutes to block non-specific sites. The antibodies were titrated into the staining solution. The cells were rinsed in a rinse solution (PBS+0.02% azide) by resuspending the cells in 200 ul/well. The cells were centrifuged at 1500 rpm at 4 degrees celsius for 7 minutes. The rinse solution was removed and the rinse step was repeated. […] The cells/antibodies were rinsed as described above to remove excess/unbound antibody. After the last rinse, the cells were resuspended in 200 ul of rinse solution with a drop of staining solution added to keep the cells from aggregating.

[2] = Differential Scanning Calorimetry (DSC) thermostability; assay type: physicochemical; details: Fab region
Source text: Differential Scanning calorimetry (DSC) was used to compare the thermostability of parent and engineered antibodies. DSC is a thermodynamical tool for direct assessment of the heat energy uptake, which occurs in a sample within a regulated increase or decrease in temperature. DSC is commonly employed to assess the thermal and conformational stability of a protein. The melting temperature of a protein, or of individual domains, can be obtained from the DSC profile, and if the reaction is reversible the thermodynamic parameters of the unfolding can be determined. A protein is considered more thermostable when the Tm (transition temperature) is higher. When thermostability data are compared to other bioanalytical methods, like size exclusion chromatography (SEC), it has been observed that a correlation between greater thermostability (higher Tm) and decreased aggregation. Antibodies with a higher Tm and decreased aggregation formation have the potential for improved long-term stability thus potentially making better biotherapeutics.
DSC was carried out using a MicroCal™ VP-Capillary DSC system (GE Healthcare, Piscataway, N.J.) equipped with an auto-sampler. The temperature differences between the reference and sample cells are continuously measured, and calibrated to power units. For example, the full-length antibodies shown in TABLE 10 were diluted to 0.5 mg/mL in a buffered solution. The solution reference and protein samples were measured in a 135 μL cell from 20 to 110° C. at a heating rate of 60° C./hour. The pre-scan was set at 15 minutes while the filtering period was 10 seconds. Signal from the blank buffer solution was used for baseline subtraction. The data analysis was performed using MicroCal™ Origin 7 software. Heat capacity during protein melting was calculated by normalizing over protein concentration.

[3] = biological target: [6xHistidine-SUMO]-huBCMA (SEQ ID NO:350) and its carboxy terminal clipped forms (Homo sapiens, UniProt Q02223); experiment: Size exclusion chromatography and LC/MS of antibody complexes with Sumo-huBCMA and clipped forms; assay type: binding; details: SEC and LC/MS
Source text: To determine which forms of 6×His-SUMO-huBCMA were bound to the anti-huBCMA antibodies, the SEC fractions were isolated and analyzed. Carboxy-terminus fragments of the extracellular domain of human BCMA were generated as clipped forms from the rhuBCMA fusion protein (6×His::Sumo::huBCMA(aa 5-51)::GGS::G3::Avi) of SEQ ID NO:350, as shown in FIG. 45.
A Superdex 200™ 10/30 cm SEC column (GE Healthcare Life Sciences) was used according to the manufacturer's recommendations and run in phosphate buffered saline (PBS). Incubations of antibody with excess levels of sumoBCMA were performed at room temperature for at least 30 minutes.
A Superdex 200™ 10/30 cm SEC column (GE Healthcare Life Sciences) was used according to the manufacturer's recommended condision and run in phosphate buffered saline (PBS). Incubations of antibody with excess levels of sumoBCMA were performed at room temperature for at least 30 minutes.
5 ug of total proteins were reduced in 50 mM Tris/4 M guanidine/9 mM DTT, pH 8.0 at 55° C. for 15 min, and analyzed in Agilent LCTOF system using a Vydac C8 column, 2.1 mm ID×150 mm, […] particle size. […] TOF MS conditions included capillary voltage of 4000 V, drying gas flow at 10 L/min, dry gas temperature at 300° C., nebulizer gas flow at 40 L/min, and fragmentor voltage of 300 V. MS data was analyzed in Agilent MassHunter™ Qualitative Analysis program.

H929 cells = experiment: Internalization assay (ArrayScan spot count) in H929 cells; assay type: cell-based, human

B1: Ab-5: parental fully human anti-huBCMA mAb 2A1, Vh SEQ ID NO:214, Vl 248; heavy chain SEQ ID NO:287, light chain 288 (antibody)
heavy: EVQLVESGGGLVKPGRSLRLSCTASGFTFGDYALSWFRQAPGKGLEWVGVSRSKAYGGTTDYAASVKGRFTISRDDSKSFAYLQMNSLKTEDTAVYYCCSSGYSSGWTPFDYWGQGTLVTVSSASTKGPSVFPLAPSSKSTSGGTAALGCLVKDYFPEPVTVSWNSGALTSGVHTFPAVLQSSGLYSLSSVVTVPSSSLGTQTYICNVNHKPSNTKVDKKV[omitted - human IgG1 Fc]
light: QSVLTQPPSASGTPGQRVTISCSGSSSNIGSNTVNWYQQLPGTAPKLLIFNYHQRPSGVPDRFSGSKSGSSASLAISGLQSEDEADYYCAAWDDSLNGWVFGGGTELTVLGQPKAAPSVTLFPPSSEELQANKATLVCLISDFYPGAVTVAWKADSSPVKAGVETTTPSKQSNNKYAASSYLSLTPEQWKSHRSYSCQVTHEGSTVEKTVAPTECS
binding to myeloma cell lines and B-cell lines [1]: bound to all myeloma cell lines and B-cell lines
binding to the RAMOS B-cell line ([1]; RAMOS): comparatively low
Tm Fab [2]: 66 °C
binding to full-length and truncated fragments of human BCMA [3]: bound full-length and truncated forms of BCMA
internalization following binding to BCMA on H929 cells (H929 cells): readily internalized
